Measured affinities in a library of Ab-14 light chain variants

The measurements come from Engelhart et al. 2022 (doi:10.1038/s41597-022-01779-4) through the FLAb antibody collection.

Binding partner: SARS-CoV-2 spike HR2 peptide, sequence PDVDLGDISGINAS.

Parent: Ab-14, a human scFv built as VH, the linker GGGGSGGGGSGGGGS, VL. Only the CDRs of the light chain vary.
VH: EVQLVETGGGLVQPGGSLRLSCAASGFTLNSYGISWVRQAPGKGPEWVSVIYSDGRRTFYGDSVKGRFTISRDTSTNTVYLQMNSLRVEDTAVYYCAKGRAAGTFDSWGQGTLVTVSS
VL: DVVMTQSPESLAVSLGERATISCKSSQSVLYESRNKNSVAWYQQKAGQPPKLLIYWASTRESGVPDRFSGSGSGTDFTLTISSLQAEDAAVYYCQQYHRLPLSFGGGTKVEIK

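The starting antibody came from a phage panning campaign against this peptide. Library AAYL50 holds single substitutions and randomly drawn double and triple substitutions in the CDRs. The assay is AlphaSeq: two haploid yeast populations carry antibody and antigen on their surface. Pairs that bind mate more often; barcode pairs of the diploids are counted by sequencing. The ratio of observed to expected reads was calibrated, replicate by replicate, on BCL2-family standards whose Kd was known from biolayer interferometry. Mating was done three times.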

Variants are written as CDR1, CDR2 and CDR3 of the light chain (limits as in the source). Parent: KSSQSVLYESRNKNSVA, WASTRES, QQYHRLPLS.
Values are log10 of the apparent Kd in nM; lower means stronger binding.
A mean of the replicates is given; it leaves out those without a signal.
"nd" means that the variant was in the library but no mating with the target was seen in any replicate; the authors take this as a sign of poor binding, and no number exists.
For reference, the parent read 0.65 as the reference entry and 1.68 as a member of this library.

| CDR-L1 | CDR-L2 | CDR-L3 | mean log10 Kd (nM) | replicates with signal |
|---|---|---|---|---|
| KHSQSVLYESRNKNSVA | WAETRES | QQYHRLPLG | 3.61 | 1/3 |
| KSSQSVLYESRNKNSVI | WASTRES | QQPHRLWLS | nd | 0/3 |
| KSAQSVLYESRNKSSVA | WRSTRES | QQYHRLPLS | nd | 0/3 |
| KSHNSVLYESRNKNSVA | WASTRES | QQYHRLPKS | nd | 0/3 |
| KSDQSVLYESRNKNAVA | WASTRES | AQYHRLPLS | 1.50 | 3/3 |
| KSSQSVLYESRNKMSVA | WASTYEH | QQYHRLPLS | nd | 0/3 |
| KISQSVLYESRNKNSVA | WASTRES | QQYPRAPLS | 0.26 | 3/3 |
| KSSQSVLYESRNKNSSA | WASTRES | MQYHRLPLS | nd | 0/3 |
| KSSQIVLYESRNKWSWA | WASTRES | QQYHRLPLS | nd | 0/3 |
| KSSQSVLYEWRNKNSVA | WASTKES | WQYHRLPLS | 4.33 | 1/3 |
| KSSQSVLYESPNKNSVA | WASTRES | QQHHRLPLV | 3.38 | 3/3 |
| KWSQSVLYESRNKNSVA | WASTPES | QQYHRCPLS | 4.58 | 3/3 |
| KSSPSVLYESRSKKSVA | WASTRES | QQYHRLPLS | 2.16 | 3/3 |
| KSSQWVLYESRNKNSVA | HASTIES | QQYHRLPLS | nd | 0/3 |
| KSDQSVLYQSRNMNSVA | WASTRES | QQYHRLPLS | 2.35 | 3/3 |
| KSSQSVLHESRNKNSVA | WASTRES | QMYHRLPLH | 0.89 | 3/3 |
| KWSQSVLYESRNKNSVA | YASTRES | QQYHRLPLS | 0.78 | 3/3 |
| KSDQSMLYESRNKNSVA | WASTRES | QQYWRLPLS | 0.30 | 3/3 |
| KSKQSCLYESRNKNSVA | WAKTRES | QQYHRLPLS | nd | 0/3 |
| KSSQSVLYESRNKNSVA | WARTRES | YQYHRLPDS | nd | 0/3 |
| KSSQSVLTYSRNKNSVA | WASTEES | QQYHRLPLS | 2.45 | 3/3 |
| KSSQSVLYESRNKNSVA | WASTTES | KQYHRLYLS | 3.61 | 1/3 |
| KSSQSVLYESRAKNSVA | WASTRES | QQYHRLPHR | 1.55 | 3/3 |
| KSSQSVLYESNNKNSVA | WASTRAS | QQYHALPLS | nd | 0/3 |
| KSSQSVLYESPNKNSVA | WASTRES | QQYHHLPAS | nd | 0/3 |
| KSSQSVLYESRNKNYVA | WASTRED | QQYHRLPLL | 2.77 | 3/3 |
| KSSQSVLHESRNKNSVA | WAQTREK | QQYHRLPLS | nd | 0/3 |
| KSSQSVLSESRLKNSVA | WASTRES | QQYHWLPLS | 2.66 | 3/3 |
| KSSVSVLYESRNKNSVG | EASTRES | QQYHRLPLS | 1.48 | 3/3 |
| KSSQSSLYESLNKNSVA | WASTRET | QQYHRLPLS | 0.66 | 3/3 |
| KSSQSVLYESRNKNSVI | WADTKES | QQYHRLPLS | 5.75 | 1/3 |
| KSSQSVLYESRNFASVA | WASTRES | QQYHRLILS | 4.61 | 2/3 |
| KSSQYVLYESRNKNSWA | WASTRES | QQQHRLPLS | 5.11 | 1/3 |
| KSSQSVLYESRNKNSVA | WASTRNV | QQYHRLPLS | 3.75 | 3/3 |
| KSSQSVLYESRNKNSVA | WASTRTS | QQYHRLNFS | nd | 0/3 |
| KSSQSVLYESRNKNSVW | WASTREF | QQYHRWPLS | nd | 0/3 |
| KSSSSVLYESRNKNSVA | WASTFEE | QQYHRLPLS | 3.96 | 1/3 |
| KSSQSVLYNSRNINSVG | WASTRES | QQYHRLPLS | 4.55 | 1/3 |
| KSSQAVLYESRNKNSPA | WASTRES | NQYHRLPLS | 1.00 | 3/3 |
| KSSVSNLKESRNKNSVA | WASTRES | QQYHRLPLS | 0.93 | 3/3 |
| KSSQLVIYESRNKNSVA | WASTRES | QQYHRLPLS | 1.76 | 3/3 |
| KSSQSVLYESRAKNSVA | WASTRES | QQGHRMPLS | 3.56 | 1/3 |
| KSSQSVLYESRNKNSQP | WAKTRES | QQYHRLPLS | nd | 0/3 |
| KSSQSVLYESRNKNSPA | WASTRES | QQYHRRPLS | 3.77 | 1/3 |
| KSSQSVLYESRLKNSVA | QASTRES | QQYHRKPLS | 4.05 | 1/3 |
| KSSQSVLYESRNKNSVA | WASYRPS | QQYHRLPLP | 1.22 | 2/3 |
| KSSQSVLYKSRNKNSVA | WASTRES | QCYKRLPLS | 4.76 | 1/3 |
| KSSQSYLYESRNKNSVA | WASARWS | QQYHRLPLS | nd | 0/3 |
| KSQQSVLYESRNKNSVA | WASTRES | QQIHRLPLK | nd | 0/3 |
| KSSQSVLYESRNPLSVA | WASTREK | QQYHRLPLS | 1.37 | 3/3 |
| KSSQSVIYESRNKNSVA | WASTRES | QQRHRLPLC | 1.01 | 3/3 |
| YSSQSVLYEERNKNSVA | WASTRES | QQYHRLPLS | 0.97 | 3/3 |
| KSSQSVLYESRNKNSHA | WASERES | QRYHRLPLS | 4.65 | 3/3 |
| KSSQSVLYESRNKNSHA | WASTRES | QQSHRLPLQ | 4.25 | 1/3 |
| KSSQSVLYESRNKNSVA | WASNRES | QQYHRLTNS | 4.48 | 1/3 |
| KSSPSVLYESRNKNSVA | WMSTRES | QQYPRLPLS | 3.87 | 1/3 |
| KSSQSVLYESRSKNSVA | WASTRMS | QQYHRLTLS | nd | 0/3 |
| KSSCSVLYESRNKNSVA | WASTRES | QCYHRRPLS | 5.81 | 2/3 |
| PSSQDVLYESRNKNSVA | WASTRES | QQIHRLPLS | nd | 0/3 |
| KSSQSVLYASRNKNSVA | NASTRES | KQYHRLPLS | nd | 0/3 |
| KSGQSVLYEKRNKNSVA | WASTRES | CQYHRLPLS | nd | 0/3 |
| KSSQSVDHESRNKNSVA | WASTRES | QQYFRLPLS | 1.30 | 3/3 |
| KSSQSVLYESRNKNSVA | WASTRMK | QTYHRLPLS | 1.59 | 3/3 |
| KSNQSVLYESRNKNSVA | WASTRIS | QQRHRLPLS | nd | 0/3 |

A selection of 7 entries from above:

CDR-L1	CDR-L2	CDR-L3	mean log10 Kd (nM)	replicates with signal
KSSQSVLYESRNKNSHA	WASTRES	QQSHRLPLQ	4.25	1/3
KSKQSCLYESRNKNSVA	WAKTRES	QQYHRLPLS	nd	0/3
KSSQSVLYESPNKNSVA	WASTRES	QQHHRLPLV	3.38	3/3
KSSQSVLYESRNKNSPA	WASTRES	QQYHRRPLS	3.77	1/3
KSHNSVLYESRNKNSVA	WASTRES	QQYHRLPKS	nd	0/3
YSSQSVLYEERNKNSVA	WASTRES	QQYHRLPLS	0.97	3/3
KSSQSVLYASRNKNSVA	NASTRES	KQYHRLPLS	nd	0/3

Empty control strains, which show no peptide, gave a signal in 18% of pairings with library AAYL50; the median was 4.19 and 95% of these signals were weaker than 2.99. No background was subtracted.